# Data taken from PubChem BioAssay AID488919 (Sanford-Burnham Center for Chemical Genomics, 2010).
# Only a part is listed here, and it is no random draw. Calls of active or inactive are those of the source.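 Rule for the calls: active = mean inhibition above about 50% when retested at one dose (limit read from the data); inactive = the rest.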
# Experiment: luciferase luminescence interference by compounds, confirmation, artefact control for SENP inhibitor project, biochemical, single concentration, SENP8 reaction pre-completed (AID 488919);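 note: plate controls were DMSO wells with completed reaction for no effect and substrate without enzyme for full effect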
# Conditions: Pre-incubated SENP8/Z-RLRGG-aminoluciferin, at 12.5 µM, hits give high values
row,Compound,inhibition
1,CP(=O)(Nc1ccccn1)Oc1ccc(Cl)cc1 (configuration not stated),inactive: -6.8%
2,CC1=C2N=C(C=C3N=C(C(C)=C4[N-][C@@](C)([C@@H]5N=C1[C@](C)(CCC(=O)NC[C@@H](C)OP(=O)([O-])O[C@H]1[C@@H](O)[C@@H](n6cnc7cc(C)c(C)cc76)O[C@@H]1CO)[C@H]5CC(N)=O)[C@@](C)(CC(N)=O)[C@@H]4CCC(N)=O)[C@@](C)(CC(N)=O)[C@@H]3CCC(N)=O)C(C)(C)[C@@H]2CCC(N)=O.[C-]#N.[Co+3],inactive: -3.5%
